Assays:
[1] = tested on: human breast cancer ZR-75-1 cells, androgen receptor; assay: Androgenic (androgen receptor) activity in ZR-75-1 cells: cell growth and GCDFP-15/GCDFP-24 secretion; format: cell-based; conditions: low concentrations
Protocol: Maintenance of stock cultures The ZR-75-1 human breast cancer cell line can be obtained from the American Type Culture Collection (Rockville, Md.). The cells are routinely cultured in phenol red-free RPMI 1640 medium supplemented with 10 nM E2, 15 mM Hepes, 2 mM L-glutamine, 1 mM sodium pyruvate, 100 IU penicillin per ml, 100 μg streptomycin sulfate per ml, and 10% (v/v) fetal bovine serum (FBS), in a water-saturated atmosphere of 95% air: 5% CO2 at 37° C.
Stock cultures in their logarithmic growth phase are harvested with 0.05% trypsin/0.02% EDTA (w/v) in Hanks' balanced salts solution and resuspended in E2- and phenol red-free RPMI 1640 medium containing 5% (v/v) dextran-coated charcoal (DCC)-treated FBS and 500 ng of bovine insulin per ml, but otherwise supplemented as described above for maintenance of stock cultures. […]
Fourty-eight hours after plating, fresh SD medium containing the appropriate concentrations of steroids are added. […] Cell number can be determined with a Coulter Counter.
Calculations and statistical analyses Apparent IC50 values are calculated using an iterative least squares regression (Rodbard, Endocrinology 94:1427-1437,1974), while apparent inhibition constants (Ki values) are calculated according to Cheng and Prusoff (Biochem. Pharmacol. 22: 3099-3108,1973). […]

[2] = tested on: endometrial carcinoma; conditions: cited from earlier work

In the case of `C[C@]1(O)CC[C@H]2[C@@H]3CCC4=CC(=O)CCC4=C3C=C[C@@]21C` [R1881, methyltrienolone], the androgenic activity [1] is listed as “possess androgenic activity at low concentrations” and the “growth of endometrial carcinoma in vitro” value [2] is listed as “growth inhibitory effects”.

— US5861387A, “Controlled release systems and low dose androgens” (Endorecherche Inc., priority 1995, dated 1999)
